Measured values: patent US9453017B2, “Antiviral therapies with phospholipase D inhibitors” (Vanderbilt University, priority 2011, dated 2016)

Target: PLD2 (Homo sapiens (Human), UniProt O14939)
Settings: read-out: PLD2** (IC50); In vitro enzyme assay

For `O=C(NCCN1CCC2(CC1)C(=O)NCN2c1cccc(F)c1)c1ccc2ccccc2c1` [No. 1, N-(2-(1-(3-fluorophenyl)-4-oxo-1,3,8-triazaspiro[4.5]decan-8-yl)ethyl)-2-naphthamide], the IC50 was 100 nM.
